# According to ChEMBL document CHEMBL4229324, “Synthesis and antitumor activities of 1,2,3-triazines and their benzo- and heterofused derivatives” (Eur J Med Chem, 2017):
# Organism: Homo sapiens
# Assay: Potency index, ratio of GI50 for vatalanib to GI50 for test compound for antiproliferative activity against HMVEC incubated for 4 days by MTT assay
# Assay type: functional
compound,measurement,value
COc1cc2c(Nc3ccc(F)c(Cl)c3)nnnc2cc1OCCCCl,RatioGI50,4 to 10
